# The entries are a selection whose mix differs from that of the whole data set. Active and inactive are the calls of the source.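 The calls were made as follows: active = inhibition above the screen mean inhibition plus 3 SD, computed separately per campaign (cut at about 18% in these data); inactive = the rest.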
# Tested on: Fam108B (ABHD17B) serine hydrolase [Mus musculus]
# Test: mouse Fam108B serine hydrolase inhibitors, primary screen, counter-screen for RBBP9 inhibitor project, biochemical, fluorescence polarization (AID 1947);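 also: inhibitors lower polarization as less probe binds the enzyme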
# Details: recombinant Fam108B, FP-Rh probe fluorescence polarization; at 9.51 µM; stronger effect = higher value
row,SMILES,inhibition
1,CC1=NCCc2c1[nH]c1ccccc21.O=[N+]([O-])c1cc([N+](=O)[O-])c(O)c([N+](=O)[O-])c1,inactive: 1.31%
2,O=C(O)c1cccc(Nc2c([N+](=O)[O-])cc([N+](=O)[O-])cc2[N+](=O)[O-])c1,inactive: 3.74%
3,Cc1ccc(C)c(NP(C)(=O)Oc2ccccc2)c1 (configuration not stated),inactive: -1.52%
4,Cc1cc(C)cc(OP(C)(=O)Nc2ccccn2)c1 (configuration not stated),inactive: -2.04%
5,CP(=O)(Nc1cccc(Br)c1)Oc1ccccc1 (configuration not stated),inactive: -1.15%
6,COc1ccccc1OP(C)(=O)Nc1cccc(Br)c1 (configuration not stated),inactive: -1.16%
7,CCOC(=O)c1ccc(NP(C)(=O)Oc2cc(C)cc(C)c2)cc1 (configuration not stated),inactive: 3.57%
8,Cc1cc(C)cc(OP(C)(=O)Nc2ccc(C)cc2C)c1 (configuration not stated),inactive: -1.78%
9,O=[N+]([O-])c1cc([N+](=O)[O-])c(-c2cnn(-c3ccccc3)c2)c([N+](=O)[O-])c1,inactive: 0.77%
10,Cc1nc2ccc3ccccc3c2s1.O=[N+]([O-])c1cc([N+](=O)[O-])c(O)c([N+](=O)[O-])c1,inactive: 2.8%
11,O=[N+]([O-])c1cc([N+](=O)[O-])c(-n2nnc3ccccc32)c([N+](=O)[O-])c1,inactive: 0.32%
12,COc1ccccc1OP(C)(=O)Nc1c(C)cccc1C (configuration not stated),inactive: -0.26%
13,CN1CCCCC1COC(=O)C1(O)c2ccccc2CCc2ccccc21 (configuration not stated),inactive: -0.01%
14,CCCOc1ccc(NP(C)(=O)Oc2ccc(Cl)cc2)cc1 (configuration not stated),inactive: 4.64%
15,CP(=O)(Nc1ccc(SC(F)(F)F)cc1)Oc1ccccc1 (configuration not stated),inactive: 4.13%
16,CCOC(=O)C(CC)C1=NC(C)(C)Cc2ccccc21.O=[N+]([O-])c1cc([N+](=O)[O-])c(O)c([N+](=O)[O-])c1 (configuration not stated),inactive: -3.03%
17,CC1=C2N=C(C=C3N=C(C(C)=C4[N-][C@@](C)([C@@H]5N=C1[C@](C)(CCC(=O)NC[C@@H](C)OP(=O)([O-])O[C@H]1[C@@H](O)[C@@H](n6cnc7cc(C)c(C)cc76)O[C@@H]1CO)[C@H]5CC(N)=O)[C@@](C)(CC(N)=O)[C@@H]4CCC(N)=O)[C@@](C)(CC(N)=O)[C@@H]3CCC(N)=O)C(C)(C)[C@@H]2CCC(N)=O.[C-]#N.[Co+3],inactive: -0.47%
18,O=[N+]([O-])c1cc([N+](=O)[O-])c(Nc2nnnn2CCO)c([N+](=O)[O-])c1,inactive: -2.61%
19,CP(=S)(Nn1cnnc1)Oc1ccccc1 (configuration not stated),inactive: 3.88%

row,SMILES,inhibition
1,CP(=O)(Nc1ccccc1Br)Oc1ccccc1 (configuration not stated),inactive: 4.75%
2,COc1ccccc1OP(C)(=O)Nc1ccccc1 (configuration not stated),inactive: -0.97%
3,CCOC(=O)c1ccc(NP(C)(=O)Oc2ccc(OC)cc2)cc1 (configuration not stated),inactive: -6.54%
4,O=[N+]([O-])c1cc([N+](=O)[O-])c(O)c([N+](=O)[O-])c1.c1ccc(Oc2ccncc2)cc1,inactive: 3.64%
5,CCOP(C)(=S)SCC(=O)NC(C)C(=O)O (configuration not stated),inactive: -5.94%
6,CP(=O)(Nc1ccccn1)Oc1ccc(Cl)cc1 (configuration not stated),inactive: 11.2%
7,CP(=O)(Oc1ccccc1)OC(c1ccccc1)C(F)(F)F (configuration not stated),inactive: 1.89%
8,Cc1cccc(C)c1OP(C)(=O)Nc1ccc(SC(F)(F)F)cc1 (configuration not stated),inactive: 2.51%
9,CP(=O)(Nc1ccc(SC(F)(F)F)cc1)Oc1ccc(Cl)cc1 (configuration not stated),inactive: -2.75%
10,Cc1cc(C)cc(OP(C)(=O)Nc2ccc(SC(F)(F)F)cc2)c1 (configuration not stated),inactive: 4.6%
11,CP(=O)(NC(=O)Nc1ccccc1)Oc1ccccc1 (configuration not stated),inactive: 3.4%
12,CCc1ccc(OP(C)(=O)N2CCN(c3ccc([N+](=O)[O-])cc3)CC2)cc1 (configuration not stated),inactive: 3.95%
13,CCN(CC)CCCOC(=O)C(O)(c1ccccc1)c1ccccc1,inactive: 2.66%
14,Cc1ccc(NP(C)(=O)Oc2ccccc2)c(C)c1 (configuration not stated),inactive: -0.28%
15,COc1ccccc1OP(C)(=O)Nc1ccc(C)cc1 (configuration not stated),inactive: 3.56%
16,CCOC(=O)c1ccc(NP(C)(=O)Oc2ccccc2)cc1 (configuration not stated),inactive: -4%
17,Cc1cc(C)cc(OP(C)(N)=O)c1 (configuration not stated),inactive: 3.58%
18,COc1ccc(OP(C)(=O)Nc2cccc(F)c2)cc1 (configuration not stated),inactive: 0.08%
19,COc1ccccc1OP(C)(=O)Nc1cc(Cl)ccc1C (configuration not stated),inactive: -3.11%

row,SMILES,inhibition
1,O=[N+]([O-])c1cc([N+](=O)[O-])c(Nc2cccnc2)c([N+](=O)[O-])c1,inactive: 1.47%
2,O=[N+]([O-])c1ccc2c(c1)C=Nc1ccccc1O2,inactive: 5.03%
3,Cc1cccc(C)c1OP(C)(N)=O (configuration not stated),inactive: -0.93%
4,CC(C)(C)c1ccc(OP(C)(=O)Nc2ccc(SC(F)(F)F)cc2)cc1 (configuration not stated),inactive: -0.44%
5,Cc1nc2ccc3ccccc3c2o1.O=[N+]([O-])c1cc([N+](=O)[O-])c(O)c([N+](=O)[O-])c1,inactive: 2.06%
6,CP(=O)(Nc1ccc(Cl)cc1Cl)Oc1ccccc1 (configuration not stated),inactive: -0.16%
7,CP(=O)(OCCOc1ccccc1)OCCOc1ccccc1,inactive: 4.66%
8,Cc1cc(C)cc(OP(C)(=O)Nc2cccc(C(F)(F)F)c2)c1 (configuration not stated),inactive: 1.98%
9,COc1ccccc1OP(C)(=O)Nc1ccc(C)c(C)c1 (configuration not stated),inactive: -1.17%
10,COc1ccc(OP(C)(=O)Nc2ccccc2Br)cc1 (configuration not stated),inactive: 2.53%
11,Cc1c(NP(C)(=O)Oc2ccc(C(C)C)cc2)c(=O)n(-c2ccccc2)n1C (configuration not stated),inactive: -0.26%
12,O=[N+]([O-])c1cc([N+](=O)[O-])c(Nc2ccccn2)c([N+](=O)[O-])c1,inactive: 2.69%
13,COc1ccccc1OP(C)(=O)Nc1ccc(C)cc1C (configuration not stated),inactive: -3.38%
14,CP(=O)(Nc1ccccn1)Oc1ccccc1 (configuration not stated),inactive: 0.79%
15,CCc1ccc(OP(C)(=O)O)cc1,inactive: 2.92%
16,COc1ccccc1OP(C)(=O)Nc1ccc(Br)cc1 (configuration not stated),inactive: -3.32%
17,COc1ccc(OP(C)(=O)Nc2ccccn2)cc1 (configuration not stated),inactive: 1.23%
18,CN(C)CCOC(=O)C(O)(c1ccccc1)C1CCCC1 (configuration not stated),inactive: 1.02%
19,COc1ccccc1OP(C)(=O)Nc1ccccc1Br (configuration not stated),inactive: 3.42%
